Drawing on paper PMC11817610, “Stereoselective Synthesis and Biological Evaluation of Perhydroquinoxaline-Based κ Receptor Agonists” (International Journal of Molecular Sciences, 2025), this text covers Kd and Ki for 2 compounds.

By UniProt entry, the sequences of proteins in these tests, tags left out. Where a name states a change or a piece, a line headed by the entry shows the natural chain unless it says otherwise.
UniProt P41144: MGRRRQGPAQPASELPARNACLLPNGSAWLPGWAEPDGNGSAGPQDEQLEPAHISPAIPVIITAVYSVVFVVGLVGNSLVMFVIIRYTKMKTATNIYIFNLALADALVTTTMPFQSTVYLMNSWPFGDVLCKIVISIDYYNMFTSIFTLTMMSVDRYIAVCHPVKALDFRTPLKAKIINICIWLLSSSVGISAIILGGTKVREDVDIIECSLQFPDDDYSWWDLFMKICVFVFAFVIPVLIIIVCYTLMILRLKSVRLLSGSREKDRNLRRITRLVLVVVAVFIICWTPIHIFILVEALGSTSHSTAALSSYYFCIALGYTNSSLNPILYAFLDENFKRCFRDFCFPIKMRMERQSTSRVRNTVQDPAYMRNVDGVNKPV

SMILES strings stand for the structures.

For the assay, the target named is κ receptor (Cavia porcellus, UniProt P41144). As to the kind of experiment: κ receptor radioligand binding assay with [3H]U-69,593, guinea pig brain membranes. To be noted: for Ki: read-out: Ki ± SEM κ Receptor, [3H]U-69,593, guinea pig brain membranes, with SEM n = 3, without SEM one experiment.

The term Kd denotes the free concentration of one partner at which half of the binding sites on the other are occupied at equilibrium, for simple one-to-one binding. One may read the Ki as the equilibrium dissociation constant of an inhibitor or competing ligand from its target. For `CN(C(=O)Cc1ccc(Cl)c(Cl)c1)C1CCC2(CCCO2)CC1N1CCCC1` (stereo not drawn), the inhibition constant (Ki) amounted to 0.88 nM. Moreover, the Kd (read-out: Kd-value of the radioligand, κ assay, guinea pig brain membrane preparation) is 0.69 nM. As to `CN(C(=O)Cc1ccc(Cl)c(Cl)c1)C1CCCCC1N1CCCC1` (stereo not drawn), the Ki stood at 0.34 nM.
